Values quoted from earlier work in US20120107282A1, “NEURAL STEM CELL COMPOSITION CAPABLE OF TREATING CANCER AND METHOD OF TREATMENT” (S. BIOMEDICS CO., LTD., priority 2010, published 2012).

Tested on: cultured human glioma cells
Conditions: glioma cell growth

B1: IFN-β: exogenous interferon-β, a type I IFN (protein, UniProt P01574 22-187, looked up)
Interferon beta: MSYNLLGFLQRSSNFQCQKLLWQLNGRLEYCLKDRMNFDIPEEIKQLQQFQKEDAALTIYEMLQNIFAIFRQDSSSTGWNETIVENLLANVYHQINHLKTVLEEKLEKEDFTRGKLMSSLHLKRYYGRILHYLKAKEYSHCAWTIVRVEILRNFYFINRLTGYLRN
Q: Which “increase in the concentration required to obtain a similar inhibitory effect as IFN-β gene transfer” value does the source give for B1 here?
A: 40 fold
